Rows were chosen to be rich in hits. Some 3.7% of all compounds tested hit in one or more screens of this group.
miR-21 reporter – miR-21 reporter, rising signal; HeLa miR-21 FLuc reporter, luciferase, 48 h; Potency, µM (titrated, usually from 38.3 µM), for the others: at the top dose reporter change, positive = more light; 340,000 tested, under 10 active; AID 2288; active = well fitted rising curve with a large enough effect; inconclusive = small, poorly fitted or top-dose-only effect; inactive = no such curve, though single readings can be large or run the other way;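 also: % of control where 0% means no effect; miR-21 action dims this reporter so a rising signal means less miR-21 action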
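HeLa miR-21-FLuc reporter line, endogenous miR-21; 2000 cells/well in DMEM/10% FBS; compound titration up to ~40uM final, 48 h, 37 degree Celsius; luciferase detection reagent, 15 min lysis, CCD luminescence.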
Nrf2 activator – activates Nrf2 signaling; AREc32 ARE-luciferase reporter (MCF7-derived line), luminescence, 24 h; Potency, µM (doses to about 46.1 µM), for the others: at the top dose activation, hits mostly activators; 410,000 tested, 0.31% active; AID 624171; note: potency is the fitted concentration of half-maximal effect; % of control where 0% means no effect; nearly all actives have a fitted effect of over 65% in size
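ARE activation measured as luciferase luminescence (Steady-Glo, 30 min RT) in AREc32_Fluc cells after 24 hr compound exposure at 37 deg C, 5% CO2; cells seeded overnight at 1000/well in OPTI-MEM, 5% FBS.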
IL-2 act – IL-2 activation; activation, % (series mostly up to about 46 µM); IL-2 activation reporter assay, cell-based qHTS; stimulated with anti-CD3/CD4/CD28 beads; in transgenic mouse T cells; 360,000 tested, 0.065% active; in the data active = activation above about 50%; inconclusive = mostly about 30% to 49%; note: 0% is about no effect
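Quantitative HTS in unstimulated transgenic mouse T cells, with memory T cells as non-tolerant control and PMA/ionomycin as tolerance-bypass control. Compound pretreatment lasted 60 minutes before 18 h bead stimulation; EGFP/DsRed fluorescence read.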
Nrf2 block – blocks Nrf2 signaling; A549 ARE-Fluc reporter, luciferase luminescence, 18-24 h; 360,000 tested, 2.1% active; Potency, µM (series often up to 46 µM), inactives show at the highest dose activity change, negative = inhibition, actives largely listed as inhibitors; AID 504444; note: potency is the fitted concentration of half-maximal effect; % is set by controls: 0 for no effect and ±100 for the full control effect; nearly all actives have a fitted effect of over 60% in size
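Nrf2 function is reported as luminescence of an ARE-controlled luciferase in A549 cells. Compounds were tested at several concentrations, and a CellTiter-Fluor read on the same wells flagged cytotoxicity.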
A549 tox – kills or reduces viability of A549 cells in Nrf2 counter-screen; A549 ARE-Fluc cells, CellTiter-Fluor viability, 18-24 h; Potency, µM (doses to about 46 µM), without a hit: at the highest dose activity change, negative = cytotoxicity, most hits filed as inhibitors; 390,000 tested, 0.16% active; AID 504648; note: potency is the fitted concentration of half-maximal effect; % is set by controls: 0 for no effect and ±100 for the full control effect
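Cytotoxicity counterscreen: CellTiter-Fluor fluorescence was measured in A549 ARE_Fluc cells after 18-24 h of compound exposure in a concentration series. The subsequent BugLite luminescent read reports ARE-luciferase activity.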
ClpP mod – qHTS Assay for Activators of ClpP; purified B. subtilis ClpP, FRET peptide cleavage, 20 min; Potency, µM (doses to about 57.5 µM), for the others: top-dose activity change, negative = active; 340,000 tested, 1.9% active; AID 651965, 2013; active = well fitted falling curve with a large enough effect; inconclusive = small, poorly fitted or top-dose-only effect; inactive = no such curve, though single readings can be large or run the other way; note: potency is the fitted concentration of half-maximal effect; the source files actives as falling curves though it sought activators and does not explain the sign; nearly all actives have a fitted effect of over 65% in size
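Purified B. subtilis ClpP, 10 microg/mL final in Tris/HCl pH8 with KCl, BSA, glycerol and Tween-20, cleaved an Abz/nitrotyrosine-quenched decapeptide. Fluorescence (ex 320, em 430) was read at 0 and 20 min at room temperature. Delta was normalized to 5.8 microM ADEP and DMSO/no-enzyme controls.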
Active calls of the source: *; ? = inconclusive; / = no result. Unless noted, calls come from the whole dose curve; as a rule, active = well fitted curve in the direction sought with a large enough effect; inconclusive = small, poorly fitted or top-dose-only effect, or another doubt; inactive = no such curve, though single readings can be large; an effect the other way counts as inactive or inconclusive.

# | SMILES | miR-21 reporter | Nrf2 activator | IL-2 act | Nrf2 block | A549 tox | ClpP mod
1 | CC(C)Oc1ccc(CNC(=O)C2COc3ccccc3C2)cc1 (stereo not drawn) | -33% | 4% | / | / | 7% | 0%
2 | CSc1ccc(CCNC(=O)c2cc3cc(S(=O)(=O)N4CCCCC4)ccc3n2C)cc1 | 18% | 0% | / | / | -8% | 22µM*
3 | CCCCNC(=O)CCn1ccc2cc(S(=O)(=O)N3CCCC3)ccc21 | 0% | 0% | 0 | 2% | -3% | -1%
4 | CCOc1ccc(CCNC(=O)CCn2ccc3cc(S(=O)(=O)N4CCCC4)ccc32)cc1 | 13% | 3% | -3 | 26µM* | -8% | -3%
5 | Cc1ccc2c(CC(=O)N3CCN(c4cccc(Cl)c4)CC3)coc2c1C | -4% | 7% | / | ? | ? | -2%
6 | Cc1cc(NCCCN(C)C)n2nc(-c3cccs3)cc2n1 | -1% | 4% | 1 | / | -1% | 28µM*
7 | Cc1cc(C)c2c(n1)nn1c(NCCCN(C)C)cc(C)nc21 | 9% | -1% | -1 | ? | 5% | -39%
8 | CCC(=O)N(CCc1ccccc1)Cc1cc2cc3c(cc2[nH]c1=O)OCO3 | 4% | 0% | 1 | -16% | -2% | 14µM*

A second format for some results above.
2. CSc1ccc(CCNC(=O)c2cc3cc(S(=O)(=O)N4CCCCC4)ccc3n2C)cc1
- miR-21 reporter = 18%
- Nrf2 activator = 0%
- IL-2 act = /
- Nrf2 block = /
- A549 tox = -8%
- ClpP mod = 22µM*
3. CCCCNC(=O)CCn1ccc2cc(S(=O)(=O)N3CCCC3)ccc21
- miR-21 reporter = 0%
- Nrf2 activator = 0%
- IL-2 act = 0
- Nrf2 block = 2%
- A549 tox = -3%
- ClpP mod = -1%
4. CCOc1ccc(CCNC(=O)CCn2ccc3cc(S(=O)(=O)N4CCCC4)ccc32)cc1
- miR-21 reporter = 13%
- Nrf2 activator = 3%
- IL-2 act = -3
- Nrf2 block = 26µM*
- A549 tox = -8%
- ClpP mod = -3%

Following part
# | SMILES | miR-21 reporter | Nrf2 activator | IL-2 act | Nrf2 block | A549 tox | ClpP mod
9 | Cc1ccc2[nH]c(=O)c(CN(CCc3ccccc3)C(=O)N3CCOCC3)cc2c1 | -2% | 0% | -1 | 2% | -1% | 14µM*
10 | CCC(=O)N(Cc1ccc(C)cc1)Cc1cc2cc3c(cc2[nH]c1=O)OCO3 | 2% | 0% | -3 | / | -5% | 32µM*
11 | Cc1cc(C)c2c(=O)nc(SCc3ccccc3C)n(C3CC3)c2n1 | -6% | 0% | / | / | 1% | 2%
12 | Cc1ccccc1NC(=O)c1nc(S(C)(=O)=O)ncc1N(Cc1ccco1)Cc1sccc1C | 8% | 5% | / | 13% | 2% | -4%
13 | CC(NC(=O)CN1C(=O)NC(Cc2ccccc2)(Cc2ccccc2)C1=O)C12CC3CC(CC(C3)C1)C2 (stereo not drawn) | 25% | -1% | -1 | 26µM* | ? | -1%
14 | CC1CCCCC1NC(=O)CN1C(=O)NC(Cc2ccccc2)(Cc2ccccc2)C1=O (stereo not drawn) | -1% | 1% | 0 | ? | 11% | 1%
15 | Cn1c(SCc2ccc(C#N)cc2)nnc1-c1ccncc1 | -1% | 0% | 0 | 5% | -3% | 1%
16 | C=CCn1c(SCc2ccc(C#N)cc2)nnc1-c1ccc(C)cc1 | 0% | 0% | 0 | 21µM* | 3% | 0%

More results follow.
# | SMILES | miR-21 reporter | Nrf2 activator | IL-2 act | Nrf2 block | A549 tox | ClpP mod
17 | COC(=O)C1=C(C)N(C)C(C)=C(C(=O)OC)C1c1ccsc1 | -1% | 0% | -1 | / | 8% | 52%
18 | CCOC(=O)C1=CN(C)C=C(C(=O)OCC)C1c1ccsc1 | -1% | 0% | 1 | 1% | 2% | 8.9µM*
19 | CC(=O)c1cccc(OC(=O)c2ccccc2)c1 | / | 2% | 1 | 8% | 5% | 14µM*
20 | CC(=O)c1cccc(NC(=O)Oc2ccccc2)c1 | 0% | 0% | 1 | 2% | -2% | 0%
21 | CCOCCCn1cnc2c3cc(F)ccc3n(C)c2c1=O | -19% | 6% | 0 | ? | -3% | 4%
22 | COc1ccc2c(c1)c1ncn(CCN3CCCCC3)c(=O)c1n2C | -21% | 3% | -1 | 18% | -5% | 16µM*
23 | COc1ccccc1CCn1cnc2c3cc(C)ccc3n(C)c2c1=O | 1% | 4% | 0 | 1% | 1% | 35µM*
24 | COc1ccc2c(c1)c1ncn(CCN3CCCC3)c(=O)c1n2C | -9% | 3% | -3 | 1% | 4% | 32µM*

More results
# | SMILES | miR-21 reporter | Nrf2 activator | IL-2 act | Nrf2 block | A549 tox | ClpP mod
25 | Cc1cc(C)n(CCc2nc3c4ccccc4nc(N4CCN(c5cccc(C)c5C)CC4)n3n2)n1 | 4% | 0% | / | 0% | 3% | -1%
26 | CC1CCN(CC2C(=O)O[C@@H]3C[C@@]4(C)CCC[C@H](C)C4=C[C@H]23)CC(C)(C)C1 (stereo partly drawn) | 6% | 8.9µM* | 0 | -9% | 0% | /
27 | C=C1CCC[C@]2(C)C[C@H]3OC(=O)C(CN4CC(C)OC(C)C4)[C@H]3C[C@@H]12 (stereo partly drawn) | 3% | ? | -4 | ? | -8% | -1%
28 | CC(=O)c1cccc(Nc2ncnc3c2cnn3C)c1 | 4% | 0% | / | / | 15% | -4%
29 | Cc1ccc(CNC(=O)c2sc3nc[nH]c(=O)c3c2C)cc1 | -7% | 3% | / | / | 5% | 5%
30 | COc1ccc(CNC(=O)c2sc3nc[nH]c(=O)c3c2C)cc1 | -16% | 0% | / | / | 1% | 40µM*
31 | COC(=O)c1sc2nc[nH]c(=O)c2c1C | -6% | 3% | -1 | -26% | 1% | 16µM*
32 | CC(=O)N1CCc2cc(S(=O)(=O)CCC(=O)N3CCN(c4cc(C)ccc4C)CC3)ccc21 | 1% | 0% | 2 | 15µM* | 0% | -1%

Carrying on:
# | SMILES | miR-21 reporter | Nrf2 activator | IL-2 act | Nrf2 block | A549 tox | ClpP mod
33 | CC(=O)N1CCc2cc(S(=O)(=O)CCC(=O)N3CCN(c4cccc(C)c4C)CC3)ccc21 | 3% | 0% | / | ? | -4% | 2%
34 | CCC(=O)N1CCc2cc(S(=O)(=O)CCC(=O)N3CCN(c4ccc(C(C)=O)cc4)CC3)ccc21 | 1% | 0% | 0 | -10% | 0% | -11%
35 | CCC(=O)N1CCc2cc(S(=O)(=O)CCC(=O)N3CCN(c4cccc(Cl)c4)CC3)ccc21 | 11% | 1% | / | 23µM* | -3% | -1%
36 | CCC(=O)N1CCc2cc(S(=O)(=O)CCC(=O)N3CCN(c4ccc(Cl)cc4)CC3)ccc21 | 12% | 1% | -2 | 16µM* | 1% | 0%
37 | Cc1ccc(-n2nc(C(=O)N3CCN(c4cc(Cl)ccc4C)CC3)c(=O)n(C)c2=O)cc1 | -4% | -1% | / | / | 5% | 0%
38 | Cc1ccc(N(CC(O)Cn2c3ccccc3c3ccccc32)S(=O)(=O)c2ccc(F)cc2)cc1 (stereo not drawn) | ? | 0% | / | ? | ? | ?
39 | CC(=O)Nc1ccccc1N(CC(O)Cn1c2ccccc2c2ccccc21)S(=O)(=O)c1ccc(C)cc1 (stereo not drawn) | 16% | 0% | -4 | 26µM* | -22% | /
40 | COC(=O)c1cc(NC(=O)c2ccc(Cn3cc(Cl)cn3)o2)cc(C(=O)OC)c1 | 3% | 0% | -1 | 21µM* | ? | -17%
41 | COC(=O)c1ccccc1NC(=O)c1ccc(Cn2cc(Cl)cn2)o1 | -2% | -1% | -1 | ? | -8% | 39%
42 | O=[N+]([O-])c1cc(S(=O)(=O)Nc2ccccc2)ccc1Nc1ccccc1 | / | 7% | 0 | 26µM* | ? | /
43 | O=[N+]([O-])c1cc(S(=O)(=O)Nc2ccccc2)ccc1NCc1ccccc1 | -7% | 2% | 0 | -1% | 0% | 1%

Screens: PubChem, National Center for Advancing Translational Sciences (NCATS)
